In ChEMBL document CHEMBL3390842 (Medchemcomm, 2012) one finds EC50 data, which are given here for 1 compound.

Amino acid sequences for entries named in this document (tags omitted).
UniProt Q9HC97, whole entry: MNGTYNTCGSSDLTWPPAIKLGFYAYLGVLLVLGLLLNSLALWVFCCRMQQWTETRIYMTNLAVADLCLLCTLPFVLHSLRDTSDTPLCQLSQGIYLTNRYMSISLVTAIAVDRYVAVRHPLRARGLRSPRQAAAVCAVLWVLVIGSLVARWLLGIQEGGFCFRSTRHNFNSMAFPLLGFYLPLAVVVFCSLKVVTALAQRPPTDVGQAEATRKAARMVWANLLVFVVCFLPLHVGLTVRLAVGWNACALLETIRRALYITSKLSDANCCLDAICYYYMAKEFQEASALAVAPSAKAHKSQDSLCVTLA

In assay [1] the target is T1, G-protein coupled receptor 35 (Homo sapiens, UniProt Q9HC97). The conditions noted are these: u2os.
Assay [2] concerns the target T1, G-protein coupled receptor 35. Particulars: ht-29.

One may read the EC50 as the concentration at which the effect is half-maximal. A high value points to a less potent agent. With `Nc1cc([N+](=O)[O-])cc([N+](=O)[O-])c1O`, the EC50 in assay [1] worked out at 5.37 µM; in assay [2], 0.19 µM.
